Results published in ChEMBL document CHEMBL4879553, “Data for DCP probe BAY1125976” (2021).

Amino acid sequences for entries named in this document (tags omitted). A change or cut given only in a name is not applied to a line headed by its entry.
UniProt P31751: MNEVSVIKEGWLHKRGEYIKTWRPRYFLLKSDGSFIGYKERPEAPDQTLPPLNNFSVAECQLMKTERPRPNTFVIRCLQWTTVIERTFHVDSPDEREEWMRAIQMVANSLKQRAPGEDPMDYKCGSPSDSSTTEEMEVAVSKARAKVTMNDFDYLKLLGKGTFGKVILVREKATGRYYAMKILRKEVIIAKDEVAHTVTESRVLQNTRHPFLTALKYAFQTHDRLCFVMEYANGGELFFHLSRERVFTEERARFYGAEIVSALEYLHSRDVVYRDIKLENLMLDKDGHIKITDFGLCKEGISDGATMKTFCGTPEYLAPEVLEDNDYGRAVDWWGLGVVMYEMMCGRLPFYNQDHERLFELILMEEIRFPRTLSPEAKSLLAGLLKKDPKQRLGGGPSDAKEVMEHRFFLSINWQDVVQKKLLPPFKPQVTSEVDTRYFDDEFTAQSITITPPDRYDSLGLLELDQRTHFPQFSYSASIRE

Target: RAC-beta serine/threonine-protein kinase (Homo sapiens, UniProt P31751)
Experiment: Biochemical assay (AKT2); call rule not given here

NC1(c2ccc(-c3nc4c(O)ccnn4c3-c3ccccc3)cc2)CCC1
IC50: 3.84 µM (not active)
